This is an account of results in ChEMBL document CHEMBL3886962, “Spirocyclic sulfones as gamma secretase inhibitors” (2016).

Chains of the proteins cited; added tags and fusions are not shown.
UniProt P05067, whole entry, looked up: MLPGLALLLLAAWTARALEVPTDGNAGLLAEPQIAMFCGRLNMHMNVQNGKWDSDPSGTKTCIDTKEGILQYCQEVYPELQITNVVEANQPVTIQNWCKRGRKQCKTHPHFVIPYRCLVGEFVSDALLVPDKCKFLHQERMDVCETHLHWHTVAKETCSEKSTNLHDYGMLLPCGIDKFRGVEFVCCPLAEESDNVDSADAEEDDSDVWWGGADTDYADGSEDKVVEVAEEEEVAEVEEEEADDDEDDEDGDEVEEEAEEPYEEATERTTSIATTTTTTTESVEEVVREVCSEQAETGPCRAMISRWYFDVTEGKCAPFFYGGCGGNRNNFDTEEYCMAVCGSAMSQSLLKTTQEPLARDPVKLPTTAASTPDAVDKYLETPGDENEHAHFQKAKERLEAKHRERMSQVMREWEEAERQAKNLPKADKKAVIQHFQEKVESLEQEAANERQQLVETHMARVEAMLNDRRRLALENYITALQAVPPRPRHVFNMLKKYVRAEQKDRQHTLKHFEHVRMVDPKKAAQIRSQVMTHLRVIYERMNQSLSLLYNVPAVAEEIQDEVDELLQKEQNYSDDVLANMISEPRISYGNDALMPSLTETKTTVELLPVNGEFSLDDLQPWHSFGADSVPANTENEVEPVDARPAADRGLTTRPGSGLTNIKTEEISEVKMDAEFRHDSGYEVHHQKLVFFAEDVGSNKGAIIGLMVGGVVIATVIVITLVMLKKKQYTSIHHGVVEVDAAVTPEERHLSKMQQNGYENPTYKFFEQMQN

The structures appear in SMILES notation.

By IC50 is commonly meant the concentration that inhibits the measured activity by half.

The target of the assay is Amyloid-beta precursor protein (Homo sapiens, UniProt P05067). As to the kind of experiment: Electrochemiluminescence (ECL)-Based Immunoassay: To measure γ-secretase activity, membranes were incubated at 37° C. for 1 h in 50 μL of buffer containing 20 mM Hepes (pH 7.0) and 2 mM EDTA. At the end of the incubation, Aβ 40 and Aβ 42 were measured using an electrochemiluminescence (ECL)-based immunoassay. Aβ 40 was identified with antibody pairs TAG-G2-10 and biotin-W02, while Aβ 42 was identi.

For `C[P@]1(=O)OC[C@@]2(CCC[C@@]3(S(=O)(=O)c4ccc(Cl)cc4)c4c(F)ccc(F)c4OC[C@@H]23)CO1`, the IC50 was determined as 421 nM.

As for `C[P@]1(=O)OC[C@@]2(CCC[C@@]3(S(=O)(=O)c4ccc(C(F)(F)F)cc4)c4c(F)ccc(F)c4OC[C@@H]23)CO1`, half-maximal inhibition (IC50) was put at 397 nM.

`C[P@]1(=O)OC[C@]2(CCC[C@@]3(S(=O)(=O)c4ccc(C(F)(F)F)cc4)c4c(F)ccc(F)c4OC[C@@H]23)CO1` yielded an IC50 of 79 nM. This IC50 is about 5-fold lower than that of the compound before.

`C[P@]1(=O)OC[C@]2(CCC[C@@]3(S(=O)(=O)c4ccc(Cl)cc4)c4c(F)ccc(F)c4OC[C@@H]23)CO1` gave an IC50 of 9.5 nM.
